Experiments:
[1] = molecular target: Kappa-type opioid receptor (Homo sapiens, UniProt P41145); experiment: biochemical; type: cell-based, CHO
[2] = molecular target: Delta-type opioid receptor (Homo sapiens, UniProt P41143); experiment: In vitro binding affinity to human Opioid receptor delta 1 on CHO cell membranes using [3H]diprenorphine displacement.

Chains of the proteins cited; added tags and fusions are not shown. Lines headed by an entry give the natural chain unless they say otherwise; changes in a name come on top.
UniProt P41145: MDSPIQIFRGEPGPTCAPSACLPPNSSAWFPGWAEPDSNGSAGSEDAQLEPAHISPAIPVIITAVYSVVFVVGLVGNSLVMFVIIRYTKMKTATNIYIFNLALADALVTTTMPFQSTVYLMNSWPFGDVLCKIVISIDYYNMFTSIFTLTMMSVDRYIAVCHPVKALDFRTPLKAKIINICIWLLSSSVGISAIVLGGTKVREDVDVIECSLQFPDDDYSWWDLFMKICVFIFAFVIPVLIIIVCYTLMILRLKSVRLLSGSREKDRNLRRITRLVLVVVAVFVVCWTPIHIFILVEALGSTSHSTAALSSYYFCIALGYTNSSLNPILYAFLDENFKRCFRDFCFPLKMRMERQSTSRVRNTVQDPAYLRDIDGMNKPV
UniProt P41143, whole entry: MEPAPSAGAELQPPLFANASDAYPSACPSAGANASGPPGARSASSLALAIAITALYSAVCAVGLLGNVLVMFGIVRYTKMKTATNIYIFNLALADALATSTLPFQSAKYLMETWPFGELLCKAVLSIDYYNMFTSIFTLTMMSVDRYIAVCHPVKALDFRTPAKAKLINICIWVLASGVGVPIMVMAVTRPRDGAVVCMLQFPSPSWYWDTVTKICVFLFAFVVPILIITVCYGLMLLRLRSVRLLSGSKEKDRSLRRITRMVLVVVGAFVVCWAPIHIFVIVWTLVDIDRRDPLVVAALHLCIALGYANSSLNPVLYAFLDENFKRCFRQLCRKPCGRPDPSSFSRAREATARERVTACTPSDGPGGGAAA

## CC[C@H](C)[C@H](NC(=O)[C@H](CCCN=C(N)N)NC(=O)[C@H](CCCN=C(N)N)NC(=O)[C@H](CC(C)C)NC(=O)[C@H](Cc1ccccc1)NC(=O)CNC(=O)CNC(=O)[C@@H](N)Cc1ccc(O)cc1)C(=O)O
[1]
  Ki: 4.6 nM
[2]
  Ki: 8.5 nM

— ChEMBL document CHEMBL1144926, “Structure-activity relationships of dynorphin a analogues modified in the address sequence” (J Med Chem, 2003)
